Values joined by “and” are separate entries in the source; they are usually repeats but may differ in a detail not shown here. Equal values may be shown once. Read-outs that look alike come from different tables or passages of the source.
Assays:
[1] = tested on: Vγ2Vδ2 T cell clone; test: cells; conditions: Homo sapiens
[2] = tested on: Vγ2Vδ2 T cell clone; type: cell-based, human; conditions: fosmidomycin added to culture (dxr inhibitor)
[3] = tested on: Vγ2Vδ2 T cell clone
[4] = tested on: Vγ2Vδ2 T cells; test: Expansion of Vγ2Vδ2 T cells in PBMC by nonpeptide antigens; conditions: 0.316 μM HMBPP; day 7; normal donors
[5] = tested on: Vγ2Vδ2 T cell clone; conditions: cited from earlier work

C=C(C)CCO[P@@](=O)(O)OP(=O)(O)O [IPP, isopentenyl pyrophosphate]
EC50 ([1]; 48 h, read-out: half-maximal proliferation): 1000 nM
EC50 ([1]; read-out: concentration giving half-maximal antigen-induced proliferation (one unit of bioactivity)): 3000 nM

O=CN(O)CCCP(=O)(O)O [fosmidomycin]
effect on elevated bioactivity of LytB^G120D mutant bacteria [2]: reduced to wild-type levels

C/C(=C\COP(=O)(O)OP(=O)(O)O)CO [HMBPP, (E)-4-hydroxy-3-methyl-but-2-enyl pyrophosphate]
fold more antigenic than bromohydrin pyrophosphate ([3]; Vγ2Vδ2 T cell clones): 100-300 fold
fold more potent/antigenic than IPP ([3]; molar basis, Vγ2Vδ2 T cell clones): ~30,000 fold
EC50 ([3]; read-out: concentration giving half-maximal antigen-induced proliferation (one unit of bioactivity), Vγ2Vδ2 T cell clone, usually DG.SF68 or CP.1.15): 0.0316 nM
EC50 ([3]; read-out: concentration stimulating ½ max proliferation, synthetic HMBPP, Vγ2Vδ2 T cells in vitro): 0.0316 nM and ~0.03 nM
EC50 ([3]; read-out: half-maximal proliferation, AC.2 and DG.SF68 clones, 48 h, mitomycin C-treated Va-2 cells): 0.036 nM
expansion of Vγ2Vδ2 T cells in PBMC [4]: stimulated the expansion of Vγ2Vδ2 T cells from normal donors

CC(C=O)CCOP(=O)(O)OP(=O)(O)O (stereo not drawn) [3-FBPP, 3-formyl-1-butyl pyrophosphate]
biological activity for Vγ2Vδ2 T cells [5]: only low to moderate activity
EC50 ([5]; high stimulatory activity previously reported, read-out: stimulatory activity EC50% previously reported): 5 to 50 nM
EC50 ([5]; synthetic 3-FBPP (ref 35), read-out: stimulatory activity EC50%): ~3000 nM

Reference: patent publication US8012466B2, “Immunogenic compositions for activating γδ T cells” (priority 2008, dated 2011)
